# Target: hMAO-A (Homo sapiens, UniProt P21397)
# Sequences of proteins named here, by UniProt entry; tags and fusion partners are left off.
# UniProt P21397, whole entry: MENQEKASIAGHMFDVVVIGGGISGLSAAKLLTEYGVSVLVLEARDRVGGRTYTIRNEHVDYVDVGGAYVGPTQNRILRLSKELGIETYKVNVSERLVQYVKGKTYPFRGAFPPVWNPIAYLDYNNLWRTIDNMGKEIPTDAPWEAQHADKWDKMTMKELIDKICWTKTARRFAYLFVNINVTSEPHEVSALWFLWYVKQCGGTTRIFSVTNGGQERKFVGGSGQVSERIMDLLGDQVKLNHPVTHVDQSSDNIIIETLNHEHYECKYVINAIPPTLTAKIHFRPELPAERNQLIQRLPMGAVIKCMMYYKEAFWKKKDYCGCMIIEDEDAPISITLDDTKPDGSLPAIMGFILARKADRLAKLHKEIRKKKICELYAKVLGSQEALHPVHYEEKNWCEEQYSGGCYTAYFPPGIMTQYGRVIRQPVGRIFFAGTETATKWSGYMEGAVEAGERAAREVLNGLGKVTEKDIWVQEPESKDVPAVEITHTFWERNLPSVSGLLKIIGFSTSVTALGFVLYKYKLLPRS
# Format: biochemical
structure (smiles),measurement,value
"C#CCN(C)CCCOc1ccc(Cl)cc1Cl [Clorgyline, reference compound]",residual hMAO-A activity after dialysis,14.9%
same,residual hMAO-A activity before dialysis,19.7%
same,reversibility of hMAO-A inhibition,no recovery at all
